One substance from patent US11286414B2, “Sodium nitroprusside and nitrate metabolic inhibition of sulfate-reducing microbes to control sulfide production” (UTI Limited Partnership, priority 2017, dated 2022) can be followed below.

Only a part of the results on these compounds is given; other tests are left out.

One assay concerns APB. Briefly: SNP kill of acid producing bacteria (most probable numbers). How it is done: (§1) An actively growing anaerobic culture of SRB, which also contained APB, was obtained from a continuous culture in CSBK medium with 4 mM lactate and 2 mM sulfate. Subcultures (10 ml) were transferred with a syringe to duplicate 60 ml serum bottles closed with butyl rubber stoppers and an N2—CO2 headspace. SNP was added to 0.5 mM (149 ppm). Controls without SNP were kept under the same conditions. After 10 min, 1 h and 24 h of exposure to SNP, aliquots (100 μl) of the cultures were serially diluted in triplicate in 48-well microtiter plates containing Postgate medium B (900 μl). Postgate medium B contains (g/L): KH2PO4 (0.5), NH4Cl (1.0), CaSO4 (1.0), MgSO4.7H2O (2.0), sodium lactate (4.0:60% w/w), yeast extract (1.0), ascorbic acid (0.1), thioglycolate (0.1), FeSO4.7H2O (0.5). APB were enumerated by growing triplicates of the serially diluted samples on phenol red broth (Difco, BD). The samples were incubated anaerobically for 3 weeks at 30° C. in the hood. […] Most probable numbers (MPNs) were derived from the data using appropriate statistical tables (Shen and Voordouw, 2015).

The subject of the next assay is SRB. Briefly: SNP kill of SRB (most probable numbers). The method, then:
as §1

With Na2[Fe(CN)5NO].2H2O, the “killing of APB (MPN decrease)” value was 10^7 fold in the assay with APB (0.5 mM (149 ppm) SNP, 1 h) and “about 10^3 fold” in the assay with APB (0.5 mM SNP, within 10 min). The “killing of SRB (MPN decrease)” value is 10^9 fold in the assay with SRB (0.5 mM (149 ppm) SNP, 1 h) and “about 10^3 fold” with SRB (0.5 mM SNP, within 10 min). Further, in the assay with SRB (0.5 mM (149 ppm) SNP, 24 h, below the detection limit), the “MPN decrease of SRB” value is recorded as 10^9 fold. Further, the “relative killing of SRB and APB” value in the assay with SRB (0.5 mM SNP) is given as “kills SRB more effectively than APB”.
